Target: T1, PPARγ/PRIPRAP (Homo sapiens, UniProt P37231)
T1 construct: made in house; host or cells: bacterial culture with IPTG induction
Assay: Confocal microscopy of PRIPRAP coregulator recruitment to PPARγ-loaded condensates
Type: biochemical
Settings: 10 μM ligand, 100 nM PRIPRAP, 400 nM PPARγ, overnight

Amino acid sequences for entries named in this document (tags omitted). Residues count along the entry.
UniProt P37231, 235-505: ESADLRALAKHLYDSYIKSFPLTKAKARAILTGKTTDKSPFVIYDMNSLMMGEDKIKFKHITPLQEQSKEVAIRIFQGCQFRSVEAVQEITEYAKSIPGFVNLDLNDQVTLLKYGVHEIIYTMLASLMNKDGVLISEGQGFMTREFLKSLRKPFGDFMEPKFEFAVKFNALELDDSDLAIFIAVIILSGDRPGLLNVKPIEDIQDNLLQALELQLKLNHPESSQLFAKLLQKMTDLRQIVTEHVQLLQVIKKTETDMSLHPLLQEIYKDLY

MRL-24
PRIPRAP recruitment to PPARγ-loaded condensates relative to DMSO control: significant recruitment of PRIPRAP

From PMC11826995, “Modulation of Protein–Protein Interactions with Molecular Glues in a Synthetic Condensate Platform” (Journal of the American Chemical Society, 2025)
